Most compounds without a hit are left out; they make up all but 2.3% or so of the library.
Glioma ERSR ind: inducers of ER stress response in human glioma cells. Potency, µM, without a hit: at the top dose activation, most hits filed as activators. 0.02% of 420,000 active. U87-MG GRP78 promoter luciferase reporter, 16 h; note: potency is the fitted concentration of half-maximal effect; series mostly up to about 76 µM; % of control where 0% means no effect; nearly all actives have a fitted effect of over 35% in size
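Stably transfected U87-MG glioma cells carrying a GRP78-based luciferase sensor; 16 h compound incubation. Luminescence end-point read 10 min after Bright-Glo addition at room temperature.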
Nrf2 ARE act: activators of Nrf2 (ARE) signaling; AREc32 ARE-luciferase reporter (MCF7-derived line), luminescence, 24 h; Potency, µM (highest dose often 46.1 µM), for the others: at the top dose activation, usual class: activators; 0.31% of 410,000 active; note: potency is the fitted concentration of half-maximal effect; % of control where 0% means no effect; nearly all actives have a fitted effect of over 65% in size
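Luciferase luminescence (Steady-Glo, 30 min at room temperature) served as the read-out of ARE activation in AREc32 cells treated with compounds for 24 hr at 37 deg C.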
Nrf2 inh: inhibitors of Nrf2 signaling; Potency, µM (titrated, usually from 46 µM), inactives show at the top dose activity change, negative = inhibition, usual class: inhibitors; 2.1% of 360,000 active; A549 ARE-Fluc reporter, luciferase luminescence, 18-24 h; note: potency is the fitted concentration of half-maximal effect; % is set by controls: 0 for no effect and ±100 for the full control effect; nearly all actives have a fitted effect of over 60% in size
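Nrf2 function is reported as luminescence of an ARE-controlled luciferase in A549 cells. Compounds were tested at several concentrations, and a CellTiter-Fluor read on the same wells flagged cytotoxicity.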
A549 tox: kills or reduces viability of A549 cells in Nrf2 counter-screen; A549 ARE-Fluc cells, CellTiter-Fluor viability, 18-24 h; Potency, µM (top dose mostly 46 µM), inactives show at the highest dose activity change, negative = cytotoxicity, usual class: inhibitors; 0.16% of 390,000 active; note: potency is the fitted concentration of half-maximal effect; % is set by controls: 0 for no effect and ±100 for the full control effect
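A549 ARE_Fluc cells in 5% FBS OPTI-MEM were exposed to compounds in concentration-response for 18-24 h at 37 deg C. Viability was read by CellTiter-Fluor fluorescence (Ex 405/Em 525) after 30 min, before the luciferase read.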
miR-21 reporter: raises the signal of a miR-21 reporter | HeLa miR-21 FLuc reporter, luciferase, 48 h | Potency, µM (doses to about 38.3 µM), without a hit: at the top dose reporter change, positive = more light | 340,000 tested, under 10 active | AID 2288; active = well fitted rising curve with a large enough effect; inconclusive = small, poorly fitted or top-dose-only effect; inactive = no such curve, though single readings can be large or run the other way;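 note: % of control where 0% means no effect; miR-21 action dims this reporter so a rising signal means less miR-21 action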
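HeLa miR-21-FLuc reporter line, endogenous miR-21; 2000 cells/well in DMEM/10% FBS; compound titration up to ~40uM final, 48 h, 37 degree Celsius; luciferase detection reagent, 15 min lysis, CCD luminescence.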
Mito fusion act: blocks mitochondrial division or promotes mitochondrial fusion | S. cerevisiae fusion-defective mutant growth rescue, CellTiterGlo 48 h | Potency, µM (series often up to 46.1 µM), without a hit: at the highest dose growth rescue (activation), actives largely listed as activators | AID 485298 | 0.23% of 320,000 active; note: potency is the fitted concentration of half-maximal effect; % of control where 0% means no effect; nearly all actives have a fitted effect of over 45% in size
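S. cerevisiae fusion-defective temperature-sensitive mutants (e.g. fzo1-1, mgm1-5) grown 48 h at 37C in YPEG (ethanol/glycerol non-fermentable) medium with 23 nl compound per well; growth rescue read as CellTiterGlo luminescence.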
* hit, by the source's call; ? = inconclusive; / = not tested or not shown; [ ] = dose if it differs, or a comment. Calls come from the whole dose curve; as a rule, active = well fitted curve in the direction sought with a large enough effect; inconclusive = small, poorly fitted or top-dose-only effect, or another doubt; inactive = no such curve, though single readings can be large; an effect the other way counts as inactive or inconclusive.

#	smiles	Glioma ERSR ind	Nrf2 ARE act	Nrf2 inh	A549 tox	miR-21 reporter	Mito fusion act
1	Cc1ccc(C(CC(=O)NCc2ccco2)c2ccc(OC(C)C)cc2)cc1 (configuration not stated)	1.9%	8.0%	7.31µM*	?	13.8%	1.7%
2	COc1cc(CCC(=O)Oc2ccc(C(C)=O)cc2)cc(OC)c1OC	-4.3%	0.1%	?	-1.3%	0.8%	-21.8%
3	O=C(Nc1ccc(C(F)(F)F)cc1)c1csc(-c2ccncc2)n1	-0.7%	8.1%	18.4µM*	-10.6%	8.8%	23.6%
4	O=C(Nc1ccccc1)c1csc(-c2ccccc2)n1	3.5%	10.0%	?	-2.5%	-46.5%	0.0%
5	COc1ccc(/C=C2\SC(=S)N(CCCC(=O)NNC(=O)c3ccccc3O)C2=O)cc1	-10.1%	-2.8%	13µM*	-8.4%	21.6%	-4.9%
6	O=C(CCCN1C(=O)/C(=C/c2ccccc2Cl)SC1=S)NNC(=O)c1ccncc1	-16.1%	-1.0%	25.9µM*	-30.6%	28.7%	-3.9%
7	COc1ccc(/C=C2/SC(=S)N(CCCC(=O)Nc3ccccc3C(=O)O)C2=O)cc1	-16.0%	-1.8%	?	-1.7%	29.1%	2.5%
8	O=C(CCCN1C(=O)/C(=C/c2ccccc2Cl)SC1=S)NNC(=O)c1ccccc1Cl	-13.5%	-2.2%	18.4µM*	-10.1%	?	2.3%
9	COc1ccccc1CNC(=O)CCCn1c(=O)c2ccccc2n(Cc2ccccc2C#N)c1=O	-0.8%	-0.7%	10.6%	-4.1%	-1.1%	/
10	O=C(COC(=O)c1ccc(Cl)nc1)NNC(=O)c1ccc(Cl)cc1	-0.7%	-0.4%	-8.9%	-4.8%	/	-13.9%
11	CSC1=C(C#N)C(c2ccc3c(c2)OCO3)C2=C(CCCC2=O)N1 (configuration not stated)	-0.9%	0.5%	-8.6%	-10.5%	-0.3%	-2.9%
12	CCSC1=C(C#N)C(c2ccc(Cl)cc2)C2=C(CCCC2=O)N1 (configuration not stated)	-7.3%	0.2%	20.6µM*	?	13.8%	6.3%
13	Nc1nc(NC(=O)c2ccccc2Cl)nn1-c1ccccc1	0.7%	0.2%	?	-2.8%	-30.5%	-1.9%
14	CCOc1ccccc1N(C(=O)c1snc(C(N)=O)c1N)C(C(=O)NCCC(C)C)c1ccco1 (configuration not stated)	-2.5%	0.5%	25.9µM*	?	0.4%	4.8%
15	COc1ccccc1N(C(=O)c1snc(C(N)=O)c1N)C(C(=O)NCCC(C)C)c1ccco1 (configuration not stated)	0.6%	-0.8%	?	-1.4%[1.84 µM]	-1.8%	0.0%
16	CCSc1nc(N2CCOCC2)c2c(c1C#N)CCCC2	-5.9%	-0.4%	/	1.0%	-13.5%	4.6%
17	CCSc1nc(CC)c2c(c1C#N)CCCC2	-3.8%	-0.6%	3.5%	9.1%	-14.4%	8.91µM*
18	CCC(C)(C)c1ccc(OCCCC[n+]2cccc(C)c2C)c(C(C)(C)CC)c1	-13.2%	-3.5%	5.8µM*	11.6µM*	?	-16.6%
19	CCC(C)(C)c1ccc(OCCCC[n+]2ccc(C)cc2)c(C(C)(C)CC)c1	-13.8%	-2.7%	13µM*	?	?	0.8%
20	COc1ccc(OCc2n[nH]c(=S)n2-c2ccc(C)cc2)cc1	-2.9%	-0.8%	-13.8%	-8.7%	-3.3%	-9.3%
21	Oc1ccccc1C1CC(c2cccs2)=NC(c2ccc(Cl)cc2)N1 (configuration not stated)	-3.7%	?	10.9%	0.2%	6.6%	?
22	COc1ccc(-n2c(-c3ccc(Br)cc3)c[n+]3c2CCc2ccccc2-3)cc1	-2.4%	8.0%	8.2µM*	-15.5%	?	-2.0%
23	CN(C)S(=O)(=O)c1ccc2c(c1)nc(CCC(=O)NCc1ccc(Cl)cc1)n2C	0.3%	0.7%	23.1µM*	6.2%	-1.3%	0.1%
24	CCc1ccc(NC(=O)C(=O)NCC(O)c2ccccc2)cc1 (configuration not stated)	0.1%	3.0%	17.5%	8.9%	-3.4%	-2.1%

Some entries already given, showing only A549 tox, miR-21 reporter and Glioma ERSR ind.
cpd | canonical_smiles | A549 tox | miR-21 reporter | Glioma ERSR ind
4 | O=C(Nc1ccccc1)c1csc(-c2ccccc2)n1 | -2.5% | -46.5% | 3.5%
5 | COc1ccc(/C=C2\SC(=S)N(CCCC(=O)NNC(=O)c3ccccc3O)C2=O)cc1 | -8.4% | 21.6% | -10.1%
6 | O=C(CCCN1C(=O)/C(=C/c2ccccc2Cl)SC1=S)NNC(=O)c1ccncc1 | -30.6% | 28.7% | -16.1%

Screen by screen, as entered above.
Mito fusion act for nos. 4–13: 0.0%, -4.9%, -3.9%, 2.5%, 2.3%, /, -13.9%, -2.9%, 6.3%, -1.9%
Nrf2 ARE act for nos. 4–13: 10.0%, -2.8%, -1.0%, -1.8%, -2.2%, -0.7%, -0.4%, 0.5%, 0.2%, 0.2%
